Source: paper PMC2113509

Biological target: fodrin (nonerythroid spectrin) from bovine brain (bovine)
Assay: far-Western, overlay or dot blot

Substance: calmodulin (bovine brain), 125I-labelled (from UniProt P62157 1-149) (natural protein)
- cpm bound: 8280 cpm
